Some compounds may have been tested in ways that are not shown here.

One experiment relates to LeARG1. The experiment is described as follows: Effect of various compounds on arginase activity, LeARG1. To be noted: compound 2.0 mM, 25 mM L-arginine; % of control reaction. Type of experiment: biochemical, Lycopersicon esculentum (tomato). How it is done:
(§1) Homogenates were centrifuged at 20,000×g for 10 min at 4° C., and the supernatants were used as the enzyme source. Recombinant LeARG enzyme was prepared as described above. Protein concentrations were determined as described above. Arginase activity was measured with a spectrophotometric assay for detection of urea (Alabadi et al., Plant Physiol. 112:1237-1244 (1996)), with minor modifications. The enzyme solution was activated with 1 mM MnCl2 at 37° C. for 60 min. […] Reactions were carried out at 37° C. for 20 min and stopped by the addition of 500 μl of 15% (v/v) perchloric acid. A 200-μl aliquot was mixed vigorously with 3 ml of acid mixture [9% (v/v) of phosphoric acid and 27% (v/v) of sulfuric acid] and 100 μl of 3% (w/v) α-isonitrosopropiophenone (Sigma) in 95% ethanol. This mixture was heated in a boiling water bath in the dark for 60 min and cooled for 10 min to room temperature. The OD540 was recorded on a Uvikon 933 spectrophotometer (Research Instruments, San Diego, Calif.). Substrate specificity tests were performed as described above with the exception that agmatine and other related compounds were added in place of L-arginine, to a final concentration of 250 mM. Substrates tested were obtained from Sigma. […]

Another experiment deals with LeARG2. The experiment can be described thus: Effect of various compounds on arginase activity, LeARG2. Type of experiment: biochemical, Lycopersicon esculentum (tomato). Particulars: compound 2.0 mM, 25 mM L-arginine; % of control reaction. How it is done:
as §1

Regarding Sodium nitroprusside, the “Relative activity (%)” value in the experiment on LeARG1 is reported as 102%; in the experiment with LeARG2, 105%.

For the origin of these results see patent US9796984B2, “Protection against herbivores” (priority 2004, dated 2017).
